The target in this assay is T1, human C5 (human, UniProt P01031 19-1676).
T1 construct: BLI used 'human C5' of unstated source; lysis assays used C5 of normal human serum; also called C5 (human); complement C5
The experiment in a line: BLI (Gator), immobilized antibody, human C5 0.625-40 nM, association and dissociation pH 7.4. On the procedure: The 8 histidine mutation-containing anti-C5 antibodies, including Y32H/Q38R, were tested for their pH dependence in C5 binding assays. ALXN1210, a pH-dependent binding variant of Eculizumab (U.S. Pat. No. 9,079,949) was used as a reference. A Biolayer interferometry instrument, Gator™ (Probe life Inc., USA) was used to determine pH dependent dissociation of histidine mutants and the benchmark antibodies. Briefly, anti-human IgG Fc (FHC) Probes were equilibrated in the kinetic (K) buffer of Phosphate-buffered saline containing 0.02% bovine serum albumin and 0.002% Tween20 pH 7.4. Antibodies were captured onto the sensors by dipping them into 200 μL of transfection supernatant for 600 s at pH 7.4. The biosensors were then incubated with human C5 prepared in the K buffer pH 7.4 (40 nM) for 600 s followed by 600-second dissociation period in K Buffer, pH 7.4 or pH 5.8. The data were processed and analyzed by the Gator evaluation software.
Experiment was performed to compare the pH-dependent C5 binding properties of Y32H/Q38R/L54H, Eculizumab and ALXN1210. C5 binding to probe-immobilized antibodies was allowed proceed at pH 7.4 for 600 s, followed by a 600 s dissociation period in K Buffer, pH 7.4 or pH 5.8. The data were processed and analyzed by the Gator evaluation software. […] Conversely, Y32H/Q38R/L54H has less dissociation at pH 7.4 than ALXN1210 and faster dissociation at pH 7.4 than Eculizumab.

By UniProt entry, the sequences of proteins in these tests, tags left out. Residues count along the entry.
UniProt P01031, 19-1676 limits assumed: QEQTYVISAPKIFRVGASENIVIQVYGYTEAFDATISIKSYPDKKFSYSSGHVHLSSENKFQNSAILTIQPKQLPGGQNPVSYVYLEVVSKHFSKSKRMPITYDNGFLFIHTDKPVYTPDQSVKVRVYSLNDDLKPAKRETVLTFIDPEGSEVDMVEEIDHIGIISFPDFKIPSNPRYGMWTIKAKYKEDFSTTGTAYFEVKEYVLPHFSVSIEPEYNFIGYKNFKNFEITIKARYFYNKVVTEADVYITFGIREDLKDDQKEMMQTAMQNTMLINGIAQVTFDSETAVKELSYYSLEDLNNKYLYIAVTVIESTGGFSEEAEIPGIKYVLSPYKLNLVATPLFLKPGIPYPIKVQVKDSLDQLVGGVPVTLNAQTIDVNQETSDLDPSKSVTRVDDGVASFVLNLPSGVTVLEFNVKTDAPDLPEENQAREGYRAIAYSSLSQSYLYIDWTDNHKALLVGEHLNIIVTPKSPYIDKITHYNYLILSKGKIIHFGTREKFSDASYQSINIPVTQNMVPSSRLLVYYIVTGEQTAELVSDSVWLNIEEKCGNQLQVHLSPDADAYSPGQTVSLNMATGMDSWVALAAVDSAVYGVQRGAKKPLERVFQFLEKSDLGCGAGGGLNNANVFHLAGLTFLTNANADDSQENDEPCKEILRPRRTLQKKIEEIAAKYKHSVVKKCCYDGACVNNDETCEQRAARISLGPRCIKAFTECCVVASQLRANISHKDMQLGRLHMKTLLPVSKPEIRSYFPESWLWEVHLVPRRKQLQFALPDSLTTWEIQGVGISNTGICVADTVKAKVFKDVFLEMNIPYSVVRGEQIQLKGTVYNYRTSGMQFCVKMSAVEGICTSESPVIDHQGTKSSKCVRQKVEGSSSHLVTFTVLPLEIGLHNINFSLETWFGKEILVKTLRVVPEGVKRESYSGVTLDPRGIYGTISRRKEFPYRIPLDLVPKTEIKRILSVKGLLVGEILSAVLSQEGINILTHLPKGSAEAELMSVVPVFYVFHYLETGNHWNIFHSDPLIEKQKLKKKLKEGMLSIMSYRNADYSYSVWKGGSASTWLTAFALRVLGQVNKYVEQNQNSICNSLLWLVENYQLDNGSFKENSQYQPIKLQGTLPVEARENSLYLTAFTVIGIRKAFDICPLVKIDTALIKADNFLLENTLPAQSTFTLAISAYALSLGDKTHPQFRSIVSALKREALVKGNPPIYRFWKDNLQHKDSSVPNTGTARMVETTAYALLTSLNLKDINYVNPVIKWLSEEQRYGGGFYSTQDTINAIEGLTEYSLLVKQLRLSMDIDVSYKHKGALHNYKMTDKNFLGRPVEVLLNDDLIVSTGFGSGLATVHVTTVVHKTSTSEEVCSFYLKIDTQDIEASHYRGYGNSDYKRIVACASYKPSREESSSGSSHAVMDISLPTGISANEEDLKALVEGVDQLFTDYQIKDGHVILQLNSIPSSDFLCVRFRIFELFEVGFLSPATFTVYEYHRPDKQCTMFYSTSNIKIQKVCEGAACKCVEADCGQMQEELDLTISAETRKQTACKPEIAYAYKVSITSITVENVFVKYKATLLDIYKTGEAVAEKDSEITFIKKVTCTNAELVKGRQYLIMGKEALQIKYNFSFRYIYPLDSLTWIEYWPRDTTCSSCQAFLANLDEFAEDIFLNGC

Our source for the Kd, koff and kon values is US20240076360A1 (University of Pennsylvania, published 2024).

B1: ALXN1210 (antibody, V domains shown)
VH: QVQLVQSGAEVKKPGASVKVSCKASGHIFSNYWIQWVRQAPGQGLEWMGEILPGSGHTEYTENFKDRVTMTRDTSTSTVYMELSSLRSEDTAVYYCARYFFGSSPNWYFDVWGQGTLVTVSS
VL: DIQMTQSPSSLSASVGDRVTITCGASENIYGALNWYQQKPGKAPKLLIYGATNLADGVPSRFSGSGSGTDFTLTISSLQPEDFATYYCQNVLNTPLTFGQGTKVEIK
As a reminder, the Kd is a measure of binding affinity in units of concentration. A high value points to weaker binding. As usually defined, the koff is a measure of how fast the partners let go of each other. Low readings indicate slow dissociation, high ones fast dissociation. By kon is commonly meant the rate constant with which the complex forms. B1 registered an equilibrium dissociation constant (Kd) of 1.21 nM, an off-rate constant (koff) of 0.000152 s⁻¹ and an on-rate (kon) of 126000 M⁻¹ s⁻¹.
